# Data reported in patent US8017623B2, “Dextromethorphan hydrochloride” (Trinity Laboratories, Inc., priority 2008, dated 2011).
# Assay: solubility
substance,measurement,setting,value
"3-methoxy-17-methyl-9a, 13a, 14a-morphinan hydrochloride [Dextromethorphan Hydrochloride]",solubility in alcohol,alcohol,soluble
same,solubility in chloroform,chloroform,soluble
same,solubility in water,water at room temperature,freely soluble
